Test results as given in article PMC11079024, “Identification of a family of species-selective complex I inhibitors as potential anthelmintics” (Nature Communications, 2024).
“And” between values parts separate entries of the source, which are not always exact repeats. Identical values can stand only once. Like-named read-outs stand apart in the source and are kept apart here.

Chains of the proteins cited; added tags and fusions are not shown. Residues count along the entry.
UniProt P03887, whole entry: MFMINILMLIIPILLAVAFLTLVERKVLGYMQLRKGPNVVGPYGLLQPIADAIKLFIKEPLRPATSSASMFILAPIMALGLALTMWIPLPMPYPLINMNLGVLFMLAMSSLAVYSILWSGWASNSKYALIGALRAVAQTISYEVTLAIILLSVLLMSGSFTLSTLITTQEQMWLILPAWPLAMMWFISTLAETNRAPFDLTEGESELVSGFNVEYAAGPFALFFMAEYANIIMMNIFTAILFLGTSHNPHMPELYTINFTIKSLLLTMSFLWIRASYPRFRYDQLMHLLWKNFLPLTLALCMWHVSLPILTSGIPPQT
UniProt P17694, 34-463: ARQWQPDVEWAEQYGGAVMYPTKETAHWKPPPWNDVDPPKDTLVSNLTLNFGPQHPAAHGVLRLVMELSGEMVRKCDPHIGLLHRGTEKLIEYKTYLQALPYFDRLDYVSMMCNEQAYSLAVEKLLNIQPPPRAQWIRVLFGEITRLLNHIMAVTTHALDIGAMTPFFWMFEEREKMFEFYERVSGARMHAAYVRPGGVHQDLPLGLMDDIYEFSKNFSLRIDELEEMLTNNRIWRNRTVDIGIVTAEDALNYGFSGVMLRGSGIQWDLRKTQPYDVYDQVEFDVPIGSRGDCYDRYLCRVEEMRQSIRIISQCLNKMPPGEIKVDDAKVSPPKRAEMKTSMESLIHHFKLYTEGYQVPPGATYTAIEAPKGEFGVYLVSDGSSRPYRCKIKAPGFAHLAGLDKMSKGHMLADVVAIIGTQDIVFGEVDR
UniProt P42026, 38-216: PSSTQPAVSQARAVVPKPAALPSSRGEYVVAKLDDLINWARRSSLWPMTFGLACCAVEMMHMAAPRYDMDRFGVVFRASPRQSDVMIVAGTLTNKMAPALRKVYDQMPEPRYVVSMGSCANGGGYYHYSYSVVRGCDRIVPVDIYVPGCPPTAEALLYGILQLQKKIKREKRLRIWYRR

Columns and labels:
[1] = test system: P. hermaphrodita complex I; assay: In vitro complex I activity assay, P. hermaphrodita mitochondria; assay type: biochemical, Phasmarhabditis hermaphrodita
[2] = molecular target: B. taurus (heart) complex I (Bos taurus, UniProt P03887+P17694+P42026); assay type: biochemical; details: heart mitochondria
C. briggsae complex I = molecular target: T1, C. briggsae complex I (Caenorhabditis briggsae, UniProt A8X476+A8XFG2+Q8HEC4); assay: In vitro complex I activity assay, C. briggsae mitochondria; assay type: biochemical; details: single replicate
T1 sequence (A8X476 31-482): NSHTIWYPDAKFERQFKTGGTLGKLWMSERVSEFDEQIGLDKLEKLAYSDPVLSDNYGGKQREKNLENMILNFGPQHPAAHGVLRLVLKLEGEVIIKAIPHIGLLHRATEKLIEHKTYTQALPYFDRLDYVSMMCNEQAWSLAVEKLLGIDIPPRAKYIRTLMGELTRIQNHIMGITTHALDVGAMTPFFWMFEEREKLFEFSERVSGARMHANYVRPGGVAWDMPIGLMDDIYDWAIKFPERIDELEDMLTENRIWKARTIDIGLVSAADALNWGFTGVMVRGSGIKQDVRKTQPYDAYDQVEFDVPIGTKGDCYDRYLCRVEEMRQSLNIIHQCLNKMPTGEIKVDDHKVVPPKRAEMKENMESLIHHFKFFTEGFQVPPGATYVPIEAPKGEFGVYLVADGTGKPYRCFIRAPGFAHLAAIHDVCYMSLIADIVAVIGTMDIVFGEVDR
T1 sequence (A8XFG2 17-199): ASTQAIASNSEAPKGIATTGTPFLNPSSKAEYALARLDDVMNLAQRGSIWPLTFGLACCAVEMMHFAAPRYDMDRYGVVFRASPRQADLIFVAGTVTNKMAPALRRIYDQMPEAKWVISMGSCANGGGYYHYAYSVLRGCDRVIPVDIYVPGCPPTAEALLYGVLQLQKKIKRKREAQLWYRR
T1 sequence (Q8HEC4 1-291): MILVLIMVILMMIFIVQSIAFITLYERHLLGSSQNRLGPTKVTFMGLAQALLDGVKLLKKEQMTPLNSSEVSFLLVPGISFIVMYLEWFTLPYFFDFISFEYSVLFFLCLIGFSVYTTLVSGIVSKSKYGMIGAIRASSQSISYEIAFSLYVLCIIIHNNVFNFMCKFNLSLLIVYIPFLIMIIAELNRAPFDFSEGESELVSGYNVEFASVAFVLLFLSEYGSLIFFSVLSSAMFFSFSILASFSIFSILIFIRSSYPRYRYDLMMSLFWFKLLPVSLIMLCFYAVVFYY

L1 wild-type C. elegans = details: […]; for KCN survival assay value relative to DMSO control, Mean: mean of replicates; for KCN survival assay value relative to DMSO control, individual replicate: single replicate

## Cc1ccccc1OCCCCn1cnc2ccccc21 [Compound 7732524]
[1]; 0.0001 µM, Mean
  in vitro complex I activity relative to solvent control: 75.741%
[1]; 0.0001 µM, single replicate
  in vitro complex I activity relative to solvent control: 82.173% and 83.296% and 61.752%
[1]; 0.0005 µM, Mean
  in vitro complex I activity relative to solvent control: 105.346%
[1]; 0.0005 µM, single replicate
  in vitro complex I activity relative to solvent control: 87.421% and 67.900% and 160.717%
[1]; 0.001 µM, Mean
  in vitro complex I activity relative to solvent control: 106.661%
[1]; 0.001 µM, single replicate
  in vitro complex I activity relative to solvent control: 109.453% and 89.574% and 120.956%
[1]; 0.0025 µM, Mean
  in vitro complex I activity relative to solvent control: 99.145%
[1]; 0.0025 µM, single replicate
  in vitro complex I activity relative to solvent control: 66.096% and 130.942% and 100.398%
[1]; 0.005 µM, Mean
  in vitro complex I activity relative to solvent control: 88.008%
[1]; 0.005 µM, single replicate
  in vitro complex I activity relative to solvent control: 81.876% and 90.994% and 91.155%
[1]; 0.013 µM, Mean
  in vitro complex I activity relative to solvent control: 91.956%
[1]; 0.013 µM, single replicate
  in vitro complex I activity relative to solvent control: 80.052% and 70.478% and 125.339%
[1]; 0.025 µM, Mean
  in vitro complex I activity relative to solvent control: 75.701%
[1]; 0.025 µM, single replicate
  in vitro complex I activity relative to solvent control: 72.832% and 63.117% and 91.155%
[1]; 0.063 µM, Mean
  in vitro complex I activity relative to solvent control: 50.326%
[1]; 0.063 µM, single replicate
  in vitro complex I activity relative to solvent control: 39.784% and 53.027% and 58.167%
[1]; 0.125 µM, Mean
  in vitro complex I activity relative to solvent control: 30.881%
[1]; 0.125 µM, single replicate
  in vitro complex I activity relative to solvent control: 34.462% and 29.895% and 28.287%
[1]; 0.313 µM, Mean
  in vitro complex I activity relative to solvent control: 7.562%
[1]; 0.313 µM, single replicate
  in vitro complex I activity relative to solvent control: 17.864% and 2.990% and 1.832%
[1]; 0.625 µM, Mean
  in vitro complex I activity relative to solvent control: 0.000%
[1]; 0.625 µM, single replicate
  in vitro complex I activity relative to solvent control: 0.000%
[1]; 1.5 µM, Mean
  in vitro complex I activity relative to solvent control: 1.018%
[1]; 1.5 µM, single replicate
  in vitro complex I activity relative to solvent control: 0.000% and 3.054%
[1]; 3 µM, Mean
  in vitro complex I activity relative to solvent control: 0.000%
[1]; 3 µM, single replicate
  in vitro complex I activity relative to solvent control: 0.000%
[1]; 7.5 µM, Mean
  in vitro complex I activity relative to solvent control: 0.000%
[1]; 7.5 µM, single replicate
  in vitro complex I activity relative to solvent control: 0.000%
[1]; 15 µM, Mean
  in vitro complex I activity relative to solvent control: 0.000%
[1]; 15 µM, single replicate
  in vitro complex I activity relative to solvent control: 0.000%
[1]; 37.5 µM, Mean
  in vitro complex I activity relative to solvent control: 2.054%
[1]; 37.5 µM, single replicate
  in vitro complex I activity relative to solvent control: 0.000% and 6.161%
[1]; 75 µM, Mean
  in vitro complex I activity relative to solvent control: 1.088%
[1]; 75 µM, single replicate
  in vitro complex I activity relative to solvent control: 0.000% and 3.265%
[2]
  B. taurus: C. elegans IC50 Fold Change (Complex I IC50 ~Fold Change): 2.21
  Complex I IC50 ~Fold Change: 2.2
  IC50 Fold change: 2.21
C. briggsae complex I; 0.0001 µM
  in vitro complex I activity relative to solvent control: 93.046% and 92.454%
C. briggsae complex I; 0.0005 µM
  in vitro complex I activity relative to solvent control: 86.610% and 95.593%
C. briggsae complex I; 0.001 µM
  in vitro complex I activity relative to solvent control: 87.673% and 90.044%
C. briggsae complex I; 0.0025 µM
  in vitro complex I activity relative to solvent control: 90.438% and 89.438%
C. briggsae complex I; 0.005 µM
  in vitro complex I activity relative to solvent control: 102.088% and 95.670%
C. briggsae complex I; 0.013 µM
  in vitro complex I activity relative to solvent control: 83.151% and 84.893%
C. briggsae complex I; 0.025 µM
  in vitro complex I activity relative to solvent control: 66.968% and 78.817%
C. briggsae complex I; 0.063 µM
  in vitro complex I activity relative to solvent control: 36.504% and 49.778%
C. briggsae complex I; 0.125 µM
  in vitro complex I activity relative to solvent control: 23.208% and 15.095% and 39.850%
C. briggsae complex I; 0.313 µM
  in vitro complex I activity relative to solvent control: 5.446% and 0.170% and 18.193%
C. briggsae complex I; 0.625 µM
  in vitro complex I activity relative to solvent control: 0.000% and 2.155% and 0.301%
C. briggsae complex I; 1.5 µM
  in vitro complex I activity relative to solvent control: 0.000% and 3.856%
C. briggsae complex I; 3 µM
  in vitro complex I activity relative to solvent control: 0.000% and 1.040% and 4.090%
C. briggsae complex I; 7.5 µM
  in vitro complex I activity relative to solvent control: 0.735% and 1.191% and 2.237%
C. briggsae complex I; 15 µM
  in vitro complex I activity relative to solvent control: 0.186% and 4.026% and 0.000%
C. briggsae complex I; 37.5 µM
  in vitro complex I activity relative to solvent control: 0.000% and 0.822% and 2.337%
C. briggsae complex I; 75 µM
  in vitro complex I activity relative to solvent control: 0.000% and 1.074%
L1 wild-type C. elegans; 50 μM, worm motility 3 hours after the removal of KCN (endpoint), relative to DMSO controls, single biological replicate
  Relative Motility: 0.052
L1 wild-type C. elegans; dose 0.2 µM
  KCN survival assay value relative to DMSO control, Mean: 1.002
L1 wild-type C. elegans; dose 0.4 µM
  KCN survival assay value relative to DMSO control, Mean: 0.963
L1 wild-type C. elegans; dose 0.8 µM
  KCN survival assay value relative to DMSO control, Mean: 0.941
L1 wild-type C. elegans; dose 1.6 µM
  KCN survival assay value relative to DMSO control, Mean: 0.887
L1 wild-type C. elegans; dose 3.1 µM
  KCN survival assay value relative to DMSO control, Mean: 0.828
L1 wild-type C. elegans; dose 6.3 µM
  KCN survival assay value relative to DMSO control, Mean: 0.509
L1 wild-type C. elegans; dose 12.5 µM
  KCN survival assay value relative to DMSO control, Mean: 0.007
L1 wild-type C. elegans; dose 25 µM
  KCN survival assay value relative to DMSO control, Mean: 0.000
  KCN survival assay value relative to DMSO control, individual replicate: 0.000
L1 wild-type C. elegans; dose 50 µM
  KCN survival assay value relative to DMSO control, Mean: 0.000
  KCN survival assay value relative to DMSO control, individual replicate: 0.000
L1 wild-type C. elegans; dose 100 µM
  KCN survival assay value relative to DMSO control, Mean: 0.000
  KCN survival assay value relative to DMSO control, individual replicate: 0.000
